From ChEMBL document CHEMBL1125712 (J Med Chem, 1991)
Calls of active or inactive are those of the source. The rule behind the calls is not given here.

System: aldose reductase (Rattus norvegicus)
Experiment: In vivo inhibition of sorbitol accumulation in the rat following 10 mg/kg p.o. administration.
Conditions: at 10 mg/kg

Which inhibition does the source give for `O=C(O)Cc1nn(Cc2nc3cc(Br)ccc3s2)c(=O)c2ccccc12` here?
The inhibition was 87%.

`CC(c1nc2cc(C(F)(F)F)ccc2s1)n1nc(CC(=O)O)c2ccccc2c1=O` (configuration not stated) was tested. Which inhibition did it give?
The inhibition was 36%.

`O=C(O)Cc1nn(Cc2nc3ccc(Br)cc3s2)c(=O)c2ccccc12` was tested. Which inhibition did it give?
The inhibition was 55%.

With `O=C(O)Cc1nn(Cc2nc3ccccc3s2)c(=O)c2cc(Cl)c(Cl)cc12` as the compound, how does the inhibition read?
Its inhibition is 63%.

With `O=C(O)Cc1nn(Cc2nc3c(Cl)c(Cl)ccc3s2)c(=O)c2ccccc12` as the compound, how does the inhibition read?
The inhibition was 49%.

System: aldose reductase (Rattus norvegicus)
Experiment: In vivo inhibition of sorbitol accumulation in the rat following 10 mg/kg p.o. administration; Not significant.
Conditions: at 10 mg/kg

`O=C(O)Cc1nn(Cc2nc3ccccc3s2)c(=O)c2ccc(Br)cc12` was tested. Which inhibition did it give?
The inhibition was “inactive”.

How did the inhibition turn out when `O=C(O)Cc1nn(Cc2nc3ccccc3s2)c(=O)c2cc([N+](=O)[O-])ccc12` was run?
The inhibition was “inactive”.
